Reference: US20070264623A1, “Nanosensors” (PRESIDENT AND FELLOWS OF HARVARD COLLEGE, priority 2004, published 2007)

Molecular target: T1, Abl tyrosine kinase (Abelson murine leukemia virus, UniProt P00521)
T1 sequence (P00521 128-379 limits assumed): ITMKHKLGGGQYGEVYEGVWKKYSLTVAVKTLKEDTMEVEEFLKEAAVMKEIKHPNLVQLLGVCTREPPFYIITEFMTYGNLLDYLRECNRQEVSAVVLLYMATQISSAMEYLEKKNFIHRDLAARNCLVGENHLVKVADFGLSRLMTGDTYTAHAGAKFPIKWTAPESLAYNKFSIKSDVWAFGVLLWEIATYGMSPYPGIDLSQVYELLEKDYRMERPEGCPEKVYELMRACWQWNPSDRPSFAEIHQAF

SMILES: O=C(O)CCCC[C@@H]1SC[C@@H]2NC(=O)N[C@@H]21 [biotin]
- decrease in normalized conductance (degree of inhibition of ATP binding) (100 nM ATP and 50 nM small molecule): essentially no change above background
- concentration dependence of normalized delta-G (inhibition) (varying small molecule concentration, fixed 100 nM ATP): almost no concentration dependence
